Test: Cmax of other small molecule drugs in plasma, preparation versus original drug solution (Experimental Example 7)
Settings: male, Sprague-Dawley (SD), rat, in vivo, sc

For `Cc1nc2n(c(=O)c1CCN1CCC(c3noc4cc(F)ccc34)CC1)CCCC2` [Risperidone], the Cmax was 340 ± 40 ng/mL.

From patent US20200069583A1, “IN SITU PHASE CHANGE GEL SUSTAINED-RELEASE SYSTEM FOR SMALL MOLECULE DRUG AND PREPARATION METHOD THEREOF” (SICHUAN UNIVERSITY, priority 2017, published 2020)
